One test addresses EZH2 Y641F (Homo sapiens (Human), UniProt Q15910, Y641F). The test can be described thus: In vitro methyltransferase activity test (LANCE Ultra). The settings on record: read-out: EZH2 Y641F IC50; Recombinant PRC2 (EZH2-Y641F), 2.5 μM SAM/250 nM H3(1-50)K27me1, 3 hours, room temperature.
The subject of the next test is Pfeiffer cells. The test can be described thus: Cell proliferation test (Cell counting kit-8, 6 days). It counts as cell-based. As to conditions: read-out: Pfeiffer IC50; Pfeiffer (CRL-2632) cells, culture for 6 days, viable cells by Cell counting kit-8. As to the method: The used cell lines Pfeiffer (CRL-2632), suDHL-6 (CRL-2959) and suDHL-10 (CRL-2963) were purchased from American Type Culture Collection (ATCC). All cell lines were cultured in RPMI-1640 medium (Gibco) containing 10% fetal bovine serum (Gibco). The cultured cells were collected by centrifugation and the cell density was measured on a CounterStar counter. Appropriate number of cells were then seeded in a 96-well culture plate and incubated overnight. Compounds to be tested were diluted by 8 gradient points in a ratio of 1:3 and added into the corresponding wells. After continuing to culture for 6 days, the number of viable cells was measured with Cell counting kit-8, and the absorbance value was read on Tecan infinite pro. The IC50 was calculated by fitting a four-parameter model in the XLfit software.
On the technique in general: Tetrazolium dyes change colour on reduction, which living cells bring about.

By UniProt entry, the sequences of proteins in these tests, tags left out.
UniProt Q15910, whole entry Y641F: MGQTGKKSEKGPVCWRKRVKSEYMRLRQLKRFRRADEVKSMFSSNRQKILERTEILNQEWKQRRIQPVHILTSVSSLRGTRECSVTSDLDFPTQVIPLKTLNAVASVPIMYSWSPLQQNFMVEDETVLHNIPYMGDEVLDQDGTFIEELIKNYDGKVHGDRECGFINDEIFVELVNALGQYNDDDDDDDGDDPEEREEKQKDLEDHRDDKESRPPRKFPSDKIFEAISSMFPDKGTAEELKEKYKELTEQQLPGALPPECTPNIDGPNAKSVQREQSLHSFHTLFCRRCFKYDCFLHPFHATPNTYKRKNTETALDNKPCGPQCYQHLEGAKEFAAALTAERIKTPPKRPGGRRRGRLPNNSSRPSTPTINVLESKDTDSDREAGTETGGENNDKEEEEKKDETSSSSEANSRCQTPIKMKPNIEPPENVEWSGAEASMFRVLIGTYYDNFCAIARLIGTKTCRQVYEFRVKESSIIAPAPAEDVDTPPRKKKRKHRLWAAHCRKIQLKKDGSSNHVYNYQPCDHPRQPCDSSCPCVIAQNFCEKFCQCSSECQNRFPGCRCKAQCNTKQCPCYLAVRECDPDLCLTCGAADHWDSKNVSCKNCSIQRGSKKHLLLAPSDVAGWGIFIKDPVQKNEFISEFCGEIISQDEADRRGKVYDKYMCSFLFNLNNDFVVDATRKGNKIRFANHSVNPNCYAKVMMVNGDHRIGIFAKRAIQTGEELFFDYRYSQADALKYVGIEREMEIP
UniProt Q09028, whole entry partner: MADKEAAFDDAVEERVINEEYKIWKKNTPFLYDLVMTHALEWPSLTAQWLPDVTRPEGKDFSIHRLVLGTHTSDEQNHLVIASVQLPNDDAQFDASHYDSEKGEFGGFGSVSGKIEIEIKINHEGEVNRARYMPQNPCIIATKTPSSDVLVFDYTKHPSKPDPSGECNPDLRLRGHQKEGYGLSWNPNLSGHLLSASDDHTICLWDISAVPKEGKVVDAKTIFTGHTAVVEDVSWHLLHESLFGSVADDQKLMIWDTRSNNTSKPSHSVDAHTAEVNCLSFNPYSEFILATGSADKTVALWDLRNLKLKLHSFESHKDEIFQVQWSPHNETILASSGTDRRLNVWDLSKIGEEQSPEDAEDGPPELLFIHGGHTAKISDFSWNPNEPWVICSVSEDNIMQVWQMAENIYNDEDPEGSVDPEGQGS
UniProt O75530, whole entry partner: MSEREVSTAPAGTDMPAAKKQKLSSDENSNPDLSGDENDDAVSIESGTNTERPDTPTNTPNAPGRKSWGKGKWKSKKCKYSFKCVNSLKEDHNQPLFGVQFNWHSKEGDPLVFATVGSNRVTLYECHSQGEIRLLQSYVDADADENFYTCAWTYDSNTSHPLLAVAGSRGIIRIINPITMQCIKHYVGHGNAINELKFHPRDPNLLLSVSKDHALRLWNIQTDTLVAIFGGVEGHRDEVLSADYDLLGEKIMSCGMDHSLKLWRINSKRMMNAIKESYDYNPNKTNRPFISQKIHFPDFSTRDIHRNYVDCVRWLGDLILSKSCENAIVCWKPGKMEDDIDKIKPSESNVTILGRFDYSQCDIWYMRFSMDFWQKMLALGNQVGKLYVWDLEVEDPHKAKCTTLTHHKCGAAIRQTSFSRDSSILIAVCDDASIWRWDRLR
UniProt Q15022, whole entry partner: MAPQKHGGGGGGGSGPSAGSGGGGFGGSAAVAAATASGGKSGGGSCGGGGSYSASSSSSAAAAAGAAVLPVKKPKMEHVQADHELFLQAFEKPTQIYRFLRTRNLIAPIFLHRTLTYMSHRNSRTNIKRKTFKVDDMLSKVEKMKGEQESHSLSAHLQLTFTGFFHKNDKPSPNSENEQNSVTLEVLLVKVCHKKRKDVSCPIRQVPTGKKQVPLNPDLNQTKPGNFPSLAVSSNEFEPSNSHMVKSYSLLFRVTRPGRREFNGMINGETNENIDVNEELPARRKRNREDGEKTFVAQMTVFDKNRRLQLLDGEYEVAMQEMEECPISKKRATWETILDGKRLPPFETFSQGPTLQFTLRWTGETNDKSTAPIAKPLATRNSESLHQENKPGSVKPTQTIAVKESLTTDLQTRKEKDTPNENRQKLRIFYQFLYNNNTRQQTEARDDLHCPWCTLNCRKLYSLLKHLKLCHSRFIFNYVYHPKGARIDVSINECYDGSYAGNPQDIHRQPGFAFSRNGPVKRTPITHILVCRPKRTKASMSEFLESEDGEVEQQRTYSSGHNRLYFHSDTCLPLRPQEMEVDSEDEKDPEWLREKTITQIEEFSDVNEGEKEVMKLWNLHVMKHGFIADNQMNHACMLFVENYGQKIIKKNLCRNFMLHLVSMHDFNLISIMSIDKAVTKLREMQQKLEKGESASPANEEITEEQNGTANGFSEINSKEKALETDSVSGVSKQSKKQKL
UniProt Q6ZN18, whole entry partner: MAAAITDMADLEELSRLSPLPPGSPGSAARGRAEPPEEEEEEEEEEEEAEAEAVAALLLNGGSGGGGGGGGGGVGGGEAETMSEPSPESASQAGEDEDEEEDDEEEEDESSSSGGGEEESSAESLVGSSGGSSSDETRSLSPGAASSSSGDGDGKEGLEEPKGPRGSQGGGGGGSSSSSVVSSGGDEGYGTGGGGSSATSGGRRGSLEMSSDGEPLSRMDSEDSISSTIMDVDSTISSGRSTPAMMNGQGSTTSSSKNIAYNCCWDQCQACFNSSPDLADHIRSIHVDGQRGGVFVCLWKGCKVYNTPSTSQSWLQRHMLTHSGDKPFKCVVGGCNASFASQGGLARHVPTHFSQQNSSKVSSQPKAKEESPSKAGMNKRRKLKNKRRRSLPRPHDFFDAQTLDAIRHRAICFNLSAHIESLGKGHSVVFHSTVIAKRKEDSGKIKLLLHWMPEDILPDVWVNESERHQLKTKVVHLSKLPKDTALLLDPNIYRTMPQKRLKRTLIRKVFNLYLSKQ

As to `C=CCC1(S(=O)(=O)n2cc(C)c3c(C(=O)NCc4c(OC)cc(C)[nH]c4=O)cc(-c4ccc(CN5CCOCC5)cc4)cc32)CC1`, the IC50 amounted to 8 nM on EZH2 Y641F and 142 nM in the test on Pfeiffer cells.
On the same counts, the results for `C=CCC1(S(=O)(=O)n2cc(C)c3c(C(=O)NCc4c(OC)cc(C)[nH]c4=O)cc(-c4ccc(N5CCN(CC(F)(F)F)CC5)nc4)cc32)CC1` are 21 nM and 27 nM.
Consider `C=CCC1(S(=O)(=O)n2cc(C)c3c(C(=O)NCc4c(OC)cc(C)[nH]c4=O)cc(-c4cnc(N5CCOCC5)nc4)cc32)CC1`, for which the half-maximal inhibitory concentration (IC50) on EZH2 Y641F was 31 nM; with Pfeiffer cells, 73 nM.
Regarding `C=CCC1(S(=O)(=O)n2cc(C)c3c(C(=O)NCc4c(OC)cc(C)[nH]c4=O)cc(-c4cccnc4)cc32)CC1`, the IC50 came out at 24 nM at EZH2 Y641F and 66 nM in the test with Pfeiffer cells.
On the same counts, the results for `C=CCC1(S(=O)(=O)n2cc(C)c3c(C(=O)NCc4c(CCC)cc(C)[nH]c4=O)cc(-c4ccc(N5CCN(C)CC5)nc4)cc32)CC1` are 12 nM and 262 nM.
For the compound `C=CCC1(S(=O)(=O)n2cc(C)c3c(C(=O)NCc4c(OC)cc(C)[nH]c4=O)cc(-c4cncnc4)cc32)CC1`, the figures for the IC50 at EZH2 Y641F and with Pfeiffer cells were 43 nM and 72 nM, respectively.
Take `C=CCC1(S(=O)(=O)n2cc(C)c3c(C(=O)NCc4c(C)cc(C)[nH]c4=O)cc(-c4cnc(N5CCN(C(C)C)CC5)nc4)cc32)CC1`: the half-maximal inhibitory concentration (IC50) at EZH2 Y641F amounted to 15 nM; in the test with Pfeiffer cells, 130 nM.
On the same counts, the results for `C=CCC1(S(=O)(=O)n2cc(C)c3c(C(=O)NCc4c(OC)cc(C)[nH]c4=O)cc(-c4ccc(N(C)C)nc4)cc32)CC1` are 31 nM and 64 nM.
On the same counts, the results for `C=CCC1(S(=O)(=O)n2cc(C)c3c(C(=O)NCc4c(C)cc(C)[nH]c4=O)cc(-c4ccc(N5CCN(CC(F)(F)F)CC5)nc4)cc32)CC1` are 35 nM and 49 nM.
On the same counts, the results for `Cc1cc(C)c(CNC(=O)c2cc(-c3ccc(CN(C)C)cc3)cc3c2C(C)CN3S(=O)(=O)C(C)C)c(=O)[nH]1` (stereo not drawn) are 94 nM and 1050 nM.
With `C=CCC1(S(=O)(=O)n2cc(C)c3c(C(=O)NCc4c(OC)cc(C)[nH]c4=O)cc(N4CCN(CC)CC4)cc32)CC1`, the IC50 on EZH2 Y641F was determined as 15 nM; with Pfeiffer cells, 65 nM.
On the same counts, the results for `C=CCC1(S(=O)(=O)n2cc(C)c3c(C(=O)NCc4c(OC)cc(C)[nH]c4=O)cc(-c4cncc(N5CCN(C)CC5)c4)cc32)CC1` are 9 nM and 46 nM.
As for `C=CCC1(S(=O)(=O)n2cc(C)c3c(C(=O)NCc4c(OC(C)C)cc(C)[nH]c4=O)cc(-c4ccc(N5CCN(C)CC5)nc4)cc32)CC1`, the IC50 on EZH2 Y641F is 36 nM.
As to `C=CCC1(S(=O)(=O)n2cc(C)c3c(C(=O)NCc4c(OC)cc(C)[nH]c4=O)cc(-c4cncc(F)c4)cc32)CC1`, the IC50 stood at 31 nM on EZH2 Y641F and 180 nM with Pfeiffer cells.
`C=CCC1(S(=O)(=O)n2cc(C)c3c(C(=O)NCc4c(OC)cc(C)[nH]c4=O)cc(-c4ccc(N5CCN(C)CC5)cc4)cc32)CC1`: the half-maximal inhibitory concentration (IC50) was determined as 9 nM at EZH2 Y641F and 18 nM in the test on Pfeiffer cells.
For the compound `C=CCC1(S(=O)(=O)n2cc(C)c3c(C(=O)NCc4c(Cl)cc(C)[nH]c4=O)cc(-c4ccc(N5CCN(C)CC5)nc4)cc32)CC1`, the 50% inhibitory concentration (IC50) at EZH2 Y641F came out at 32 nM; in the test on Pfeiffer cells, 87 nM.
Consider `C=CCC1(S(=O)(=O)n2cc(C)c3c(C(=O)NCc4c(OC)cc(C)[nH]c4=O)cc(-c4ccnc(N5CCN(C)CC5)c4)cc32)CC1`, for which, at EZH2 Y641F, the half-maximal inhibitory concentration (IC50) came to 33 nM.
On to `C=CCC1(S(=O)(=O)n2cc(C)c3c(C(=O)NCc4c(OC)cc(C)[nH]c4=O)cc(-c4ccc(N5CCNCC5)nc4)cc32)CC1`, for which the IC50 on EZH2 Y641F turned out to be 5 nM; with Pfeiffer cells it was 91 nM.
For the compound `C=CCC1(S(=O)(=O)n2cc(C)c3c(C(=O)NCc4c(OC)cc(C)[nH]c4=O)cc(N4CCC(N(C)C)CC4)cc32)CC1`, the IC50 at EZH2 Y641F was 27 nM.
On to `C=CCC1(S(=O)(=O)n2cc(C)c3c(C(=O)NCc4c(OC)cc(C)[nH]c4=O)cc(-c4cnc(N5CCNCC5)nc4)cc32)CC1`, for which the results for the IC50 on EZH2 Y641F and in the test on Pfeiffer cells were 5 nM and 48 nM, respectively.
On the same counts, the results for `C=CCC1(S(=O)(=O)n2cc(C)c3c(C(=O)NCc4c(OC)cc(C)[nH]c4=O)cc(-c4cnc(N5CCN(C)CC5)nc4)cc32)CC1` are 21 nM and 12 nM.
On the same counts, the results for `C=CCC1(S(=O)(=O)n2cc(C)c3c(C(=O)NCc4c(OC)cc(C)[nH]c4=O)cc(N4CCN(C)C(C)C4)cc32)CC1` (stereo not drawn) are 23 nM and 209 nM.
For `C=CCC1(S(=O)(=O)n2cc(C)c3c(C(=O)NCc4c(OC)cc(C)[nH]c4=O)cc(-c4cn[nH]c4)cc32)CC1`, the half-inhibitory concentration (IC50) at EZH2 Y641F was 37 nM.
With `C=CCC1(S(=O)(=O)n2cc(C)c3c(C(=O)NCc4c(OC)cc(C)[nH]c4=O)cc(/C=C/c4ccccn4)cc32)CC1`, the IC50 on EZH2 Y641F was found to be 36 nM; with Pfeiffer cells, 177 nM.
As for `C=CCC1(S(=O)(=O)n2cc(C)c3c(C(=O)NCc4c(OC)cc(C)[nH]c4=O)cc(-c4ccc(CN5CCOCC5)nc4)cc32)CC1`, the IC50 at EZH2 Y641F came out at 10 nM; with Pfeiffer cells, 129 nM.
On the same counts, the results for `C=CCC1(S(=O)(=O)n2cc(C)c3c(C(=O)NCc4c(OC)cc(C)[nH]c4=O)cc(N4CCN(CC(F)(F)F)CC4)cc32)CC1` are 27 nM and 200 nM.
On the same counts, the results for `C=CCC1(S(=O)(=O)n2cc(C)c3c(C(=O)NCc4c(OC)cc(C)[nH]c4=O)cc(-c4ccc(CN(C)C)nc4)cc32)CC1` are 17 nM and 99 nM.
On the same counts, the results for `C=CCC1(S(=O)(=O)n2cc(C)c3c(C(=O)NCc4c(OC(C)C)cc(C)[nH]c4=O)cc(-c4ccc(CN(C)C)cc4)cc32)CC1` are 45 nM and 242 nM.
On to `C=CCCS(=O)(=O)n1cc(C)c2c(C(=O)NCc3c(C)cc(C)[nH]c3=O)cc(-c3ccc(N4CCN(C)CC4)nc3)cc21`, for which the IC50 on EZH2 Y641F came out at 145 nM; in the test with Pfeiffer cells it was 1650 nM.

The term IC50 denotes the concentration that inhibits the measured activity by half.

The record behind these values is patent US10793549B2, “Sulfuryl-substituted benzoheterocyclic derivative, preparation method and medical use thereof” (SHANGHAI HAIYAN PHARMACEUTICAL TECHNOLOGY CO., LTD., priority 2016, dated 2020).
